Laboratory results: US20040067932A1 (priority 2002, published 2004)

Sequences of proteins named here, by UniProt entry; tags and fusion partners are left off.
UniProt P0DMS8, whole entry: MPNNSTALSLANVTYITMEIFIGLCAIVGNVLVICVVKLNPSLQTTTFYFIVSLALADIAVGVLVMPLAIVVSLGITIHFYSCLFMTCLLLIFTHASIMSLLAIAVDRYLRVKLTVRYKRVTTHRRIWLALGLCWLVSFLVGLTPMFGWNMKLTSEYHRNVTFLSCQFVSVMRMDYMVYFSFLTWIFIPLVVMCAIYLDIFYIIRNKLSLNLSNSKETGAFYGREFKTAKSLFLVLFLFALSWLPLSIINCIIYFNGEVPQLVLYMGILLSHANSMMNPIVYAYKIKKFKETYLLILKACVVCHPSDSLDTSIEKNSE

How the values were obtained:
hA3 adenosine receptor = hA3 adenosine receptor (Homo sapiens, UniProt P0DMS8); assay: Binding affinity at hA3 adenosine receptor; settings: for rA1/hA3 / rA2A/hA3: selectivity ratio of Ki
[1] = biological target: human A3 adenosine receptor (Homo sapiens, UniProt P0DMS8); assay: biochemical
[2] = system: human pancreatic cancer Panc-1; assay: MTT growth inhibitory assay, Panc-1; format: cell-based; settings: A3 antagonist 0.5 μg/ml
[3] = system: human melanoma A375 cell line; assay: MTT growth inhibitory assay, A375; format: cell-based; settings: A3 antagonist 10 μg/ml, paclitaxel 0.0002-0.1 μg/ml
A375 cells = assay: Flow cytometry (PI) G2/M accumulation and sub-G1 apoptosis, A375; format: cell-based, human; settings: MRE 3008F20 10 μM
Method: A375 and NCTC2544 adherent cells were trypsinized, mixed with floating cells, washed with PBS and permeabilised in 70% (vol/vol) ethanol/PBS solution at 4° C. for at least 24 hours. Jurkat, HeL023 and PBMC cells were centrifuged for 10 minutes at 1000×g. The cell pellet was then resuspended and permeabilised in 70% (vol/vol) ethanol/PBS solution at 4° C. for at least 24 hours. The cells were washed with PBS and the DNA was stained with a PBS solution, containing 20 μg/ml of propidium iodide and 100 μg/ml of RNAse, at room temperature for 30 minutes. Cells were analysed by FACScan (Becton-Dickinson) and the content of DNA was evaluated by the Cell-LISYS program (Becton-Dickinson). Cell distribution among cell cycle phases and apoptotic cells was evaluated as previously described (Secchiero et al., 2001). Briefly, the cell cycle distribution is shown as the percentage of cells containing 2n (G1 phase), 4n (G2 and M phases), 4n>x>2n. DNA amount (S phase) judged by propidium iodide staining. The apoptotic population is the percentage of cells with DNA content lower than 2n.
Cell proliferation and apoptosis are quantified by flow cytometer analysis after propidium-iodide (PI) DNA staining.

| Structure (SMILES) | Ki (hA3 adenosine receptor) [µM] | rA1/hA3 (hA3 adenosine receptor) | rA2A/hA3 (hA3 adenosine receptor) | Ki [1] [µM] | Ki (hA3 adenosine receptor; read-out: hA3 (Ki)) [µM] | Enhancement Factor for paclitaxel [2] | Enhancement Factor for paclitaxel [3] | fold reduction of paclitaxel EC50 (G2/M) (A375 cells) [fold] | fold reduction of paclitaxel ECMAX (A375 cells) [fold] | fold reduction of vindesine EC50 (G2/M) (A375 cells) [fold] | fold reduction of vindesine ECMAX (A375 cells) [fold] |
| --- | --- | --- | --- | --- | --- | --- | --- | --- | --- | --- | --- |
| CCN(CC)c1ccc(NC(=O)Nc2nc3nn(C)cc3c3nc(-c4ccco4)nn23)cc1 [IL-10, N-1-(4-diethylamino-phenyl)-N′-5-[8-methyl-2-(2-furyl)-pyrazolo[4 ,3-e]1,2,4-triazolo[1,5-c]pyrimidine]-urea] | 0.027 | 21.5 | 19.4 | 0.03 ± 0.0025 |  |  |  |  |  |  |  |
| CN(C)c1ccc(NC(=O)Nc2nc3nn(C)cc3c3nc(-c4ccco4)nn23)cc1 [IL-11, N-1-(4-dimethylamino-phenyl)-N′-5-[8-methyl-2-(2-furyl)-pyrazolo[4,3-e]1,2,4-triazolo[1,5-c]pyrimidine]-urea] |  | >6700 | >6700 |  | 0.015 | 1.8 |  |  |  |  |  |
| CCCn1cc2c(nc(NC(=O)Nc3ccc(OC)cc3)n3nc(-c4ccco4)nc23)n1 [MRE3008F20] |  | >34,482 | 6,872 | 0.0031 ± 0.0003 |  |  | 8.5 | 1.9 | 2.0 | 4.0 | 2.1 |

Read-outs that look alike come from different tables or passages of the source.
